Results published in PubChem BioAssay AID1259374 (The Scripps Research Institute Molecular Screening Center, 2018).
The list shows a part of the results, in another mix than the full data. The source made the active and inactive calls. No stated cut-off is given here; in the data, active means inhibition above about 50%; inactive means the rest.

By UniProt entry, the sequences of proteins in these tests, tags left out. Where a name states a change or a piece, a line headed by the entry shows the natural chain unless it says otherwise.
UniProt O75030: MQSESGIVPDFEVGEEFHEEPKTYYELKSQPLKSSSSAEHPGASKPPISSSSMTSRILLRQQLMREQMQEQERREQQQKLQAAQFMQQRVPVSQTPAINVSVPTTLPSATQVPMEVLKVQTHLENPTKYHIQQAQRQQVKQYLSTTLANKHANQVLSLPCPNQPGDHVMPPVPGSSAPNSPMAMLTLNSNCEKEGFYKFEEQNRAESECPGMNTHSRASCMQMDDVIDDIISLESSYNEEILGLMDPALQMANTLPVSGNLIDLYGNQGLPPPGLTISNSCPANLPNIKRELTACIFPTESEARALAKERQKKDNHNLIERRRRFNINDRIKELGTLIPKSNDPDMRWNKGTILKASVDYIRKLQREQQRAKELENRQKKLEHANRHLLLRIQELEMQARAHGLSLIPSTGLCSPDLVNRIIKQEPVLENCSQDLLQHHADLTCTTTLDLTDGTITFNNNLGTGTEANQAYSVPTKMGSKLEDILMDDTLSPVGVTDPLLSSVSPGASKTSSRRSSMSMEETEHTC

target: Microphthalmia-associated transcription factor (Homo sapiens) (UniProt O75030); assay: MITF inhibitors, primary screen, biochemical, AlphaScreen, human (AID 1259374); conditions: AlphaScreen MITF homodimerization, bead proximity signal; at 2.6 µM; stronger effect = higher value;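 further: 0% = vehicle wells with protein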

Structure (SMILES) | inhibition
O=[N+]([O-])c1ccc(Nc2ccc([N+](=O)[O-])cc2[N+](=O)[O-])c(O)c1 | inactive: 8.5%
CCOP1(=O)Oc2ccccc2OC1c1ccccc1 (stereo not given) | inactive: -5.95%
NC(=O)COC(=O)C1(O)c2ccccc2-c2ccccc21 | inactive: 4.73%
O=P(Nc1nccs1)(Oc1ccccc1)Oc1ccccc1 | inactive: 17.5%
O=P(Nc1nccs1)(c1ccccc1)c1nc2ccccc2s1 (stereo not given) | inactive: 49.2%
CCOc1ccc2nc(NCCCl)[nH]c2c1 | inactive: 1.02%
CC(=O)NC(SC1=NCCS1)C(Cl)(Cl)Cl (stereo not given) | inactive: 11.2%
O=P(Nc1ccccn1)(c1ccccc1)c1ccccc1 | inactive: -7.07%
Cn1cnc([N+](=O)[O-])c1SCCCl | inactive: 0.95%
CCSP(=O)(c1ccccc1)c1ccccc1 | inactive: 7.16%
COP(=O)(OC)Oc1c(Cl)c(Cl)c(O)c(Cl)c1Cl | inactive: 14.5%
CC(=Nc1cc([N+](=O)[O-])ccc1C)NNc1ccc([N+](=O)[O-])cc1[N+](=O)[O-] | inactive: -10%
O=[N+]([O-])c1ccc(N/N=C/c2ccc([N+](=O)[O-])s2)c([N+](=O)[O-])c1 | inactive: -6.45%
O=[N+]([O-])c1ccc(NCCN(CCO)c2ccc([N+](=O)[O-])cc2[N+](=O)[O-])c(Cl)c1 | inactive: 1.81%
COc1cc([N+](=O)[O-])cc([N+](=O)[O-])c1OCC(=O)N/N=C/c1ccc([N+](=O)[O-])o1 | inactive: 1.79%
CCCCOP(=O)(Nc1cccc(F)c1)OCCCC | inactive: -2.81%
CC1(C)COP(=S)(N(C2=NCCC2)c2ccccc2)OC1 | inactive: 12.2%
CC(C)OP(=O)(Nc1ccc(Br)cc1)OC(C)C | inactive: 1.46%
O=C(Nc1cccc(F)c1)N(Cc1cccnc1)C1CCN(CCc2ccccn2)CC1 | inactive: 9.65%
Cc1c(N=Cc2ccc([N+](=O)[O-])cc2)cc([N+](=O)[O-])cc1[N+](=O)[O-] | inactive: 9.05%
O=[N+]([O-])c1ccc2c(c1)/C(=N\O)c1cc([N+](=O)[O-])cc([N+](=O)[O-])c1-2 | inactive: 2.4%
N#Cc1cccc(C(=O)N(Cc2ccco2)C2CCN(CCc3ccccn3)CC2)c1 | inactive: -11.2%
Cc1n[n+]2c([nH]c1=O)SCC(Br)C2c1ccccc1 (stereo not given) | inactive: 7.34%
Cc1nn(-c2ccccc2)c2c1P(=O)(N1CCOCC1)N(C)C(c1ccccc1)=N2 (stereo not given) | inactive: 5.67%
CC(C)NC(=O)N(Cc1cccnc1)C1CCN(CCc2ccccn2)CC1 | inactive: 12.4%
